AlphaSeq binding of Ab-14 heavy chain variants to a spike HR2 peptide

Target: peptide PDVDLGDISGINAS, taken from heptad repeat 2 (HR2) of SARS-CoV-2 spike.

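Phage display of a naive human antibody library on the peptide gave the parent. Variants in AAYL49 differ from the parent at up to three CDR positions; double and triple changes were sampled at random. In AlphaSeq, yeast of one mating type display the scFv and yeast of the other type display the target. After mating in shaken culture at 30 °C for 16 h, diploids were selected and their barcode pairs sequenced. Read counts were normalised to the haploid input and turned into Kd by a linear fit to BCL2-family pairs of known affinity, for each replicate. Mating was done three times.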

Parent: Ab-14, a human scFv built as VH, three GGGGS repeats, VL. Only the CDRs of the heavy chain vary.
VH: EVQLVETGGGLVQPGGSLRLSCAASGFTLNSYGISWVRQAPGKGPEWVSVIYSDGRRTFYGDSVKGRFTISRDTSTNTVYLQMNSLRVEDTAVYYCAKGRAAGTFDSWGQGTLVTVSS
VL: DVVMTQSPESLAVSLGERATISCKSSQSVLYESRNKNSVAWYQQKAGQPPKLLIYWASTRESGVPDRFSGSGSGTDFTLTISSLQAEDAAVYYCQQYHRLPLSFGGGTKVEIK

Each variant's VH is given in full.
Kd is apparent (estimated from mating counts) and averaged on the log scale over replicates with a signal. Smaller is tighter.
An entry "nd" has no value in the source: the pair was not observed among the diploids in any replicate. This suggests poor binding but is not conclusive.
Order: sorted from the lowest average up, undetected variants last.
Parent in this assay: reference entry 4.4 nM, copy in this library 13 µM (one replicate of three).
Nonspecific signal, from three strains lacking the peptide, appeared in 15% of pairings of library AAYL49, centred on 11 µM (5% of these signals below 680 nM); values are not corrected for it.

80 nM (3 of 3 replicates) for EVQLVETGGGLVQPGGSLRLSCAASGFTLESYGISWVRQAPGKGPEWVSVIYSDGRRTFYQDSVKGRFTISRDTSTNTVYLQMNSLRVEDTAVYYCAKGRTAGTFDSWGQGTLVTVSS.
2.5 µM (3 of 3 replicates) for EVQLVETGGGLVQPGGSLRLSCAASGSTLNSYGISWVRQAPGKGPEWVSVIYSDGRRTFYGDSVKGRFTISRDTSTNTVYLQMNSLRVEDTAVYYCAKGMAAGTFDSWGQGTLVTVSS.
3.7 µM (1 of 3 replicates) for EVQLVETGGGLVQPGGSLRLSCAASGFTLNSYGISWVRQAPGKGPEWVSVIYSDGRRTFYGDSVVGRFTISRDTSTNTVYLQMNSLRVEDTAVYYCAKGRAAFRFDSWGQGTLVTVSS.
28 µM (1 of 3 replicates) for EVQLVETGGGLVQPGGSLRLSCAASGFTLNSEGISWVRQAPGKGPEWVSVIYSDGRRTMYGDSVKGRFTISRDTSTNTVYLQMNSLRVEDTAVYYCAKGRAAGTFDSWGQGTLVTVSS.
38 µM (2 of 3 replicates) for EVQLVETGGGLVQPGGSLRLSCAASGFTLNSYVISWVRQAPGKGPEWVSVIISDGRRTFYGDSVKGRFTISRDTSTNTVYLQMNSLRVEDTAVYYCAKGRAAGTFDSWGQGTLVTVSS.
40 µM (1 of 3 replicates) for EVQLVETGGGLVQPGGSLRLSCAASGFTLNSYWISWVRQAPGKGPEWVSVIYSDGRRTFYGDNVKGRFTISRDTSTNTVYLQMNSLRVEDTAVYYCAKLRAAGTFDSWGQGTLVTVSS.
100 µM (2 of 3 replicates) for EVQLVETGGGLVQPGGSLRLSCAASGFDLNSYGISWVRQAPGKGPEWVSVIESDGRATFYGDSVKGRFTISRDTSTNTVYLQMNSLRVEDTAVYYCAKGRAAGTFDSWGQGTLVTVSS.
520 µM (1 of 3 replicates) for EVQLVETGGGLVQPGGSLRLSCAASGFTLNSYGISWVRQAPGKGPEWVSVIYSFGRYTFYGDSVKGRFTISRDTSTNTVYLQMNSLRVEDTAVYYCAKGRAAETFDSWGQGTLVTVSS.
nd (0 of 3 replicates) for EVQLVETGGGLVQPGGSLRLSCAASEFTLNFYGISWVRQAPGKGPEWVSVIYSDGRRTFYGDSMKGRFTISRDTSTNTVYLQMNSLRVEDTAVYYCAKGRAAGTFDSWGQGTLVTVSS.
nd (0 of 3 replicates) for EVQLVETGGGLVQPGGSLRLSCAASGTTLNSYGISWVRQAPGKGPEWVSVIYSDGRRTFYGDSVKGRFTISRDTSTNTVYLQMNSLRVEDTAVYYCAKRRMAGTFDSWGQGTLVTVSS.
nd (0 of 3 replicates) for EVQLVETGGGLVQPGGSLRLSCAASGFTPNSYGISWVRQAPGKGPEWVSVISSDGRRMFYGDSVKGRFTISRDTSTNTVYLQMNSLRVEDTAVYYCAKGRAAGTFDSWGQGTLVTVSS.
nd (0 of 3 replicates) for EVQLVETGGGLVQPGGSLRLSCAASGFTLNSYGIRWVRQAPGKGPEWVSVIYSDGRRTFYGCSVKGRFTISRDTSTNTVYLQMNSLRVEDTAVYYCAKGRMAGTFDSWGQGTLVTVSS.
nd (0 of 3 replicates) for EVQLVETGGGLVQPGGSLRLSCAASGFTLNSYGHSWVRQAPGKGPEWVSVIYSDGHRTFYGDSVKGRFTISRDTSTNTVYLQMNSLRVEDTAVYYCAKGRAAGTFDDWGQGTLVTVSS.
nd (0 of 3 replicates) for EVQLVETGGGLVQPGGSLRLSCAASGFTLNSYGIWWVRQAPGKGPEWVSVIYSDGRYTFYGDSVKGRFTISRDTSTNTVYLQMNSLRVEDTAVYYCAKGRAAGHFDSWGQGTLVTVSS.
nd (0 of 3 replicates) for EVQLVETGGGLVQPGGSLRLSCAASGFTLNSYGISWVRQAPGKGPEWVSVIYYDGRRTFYGDSVKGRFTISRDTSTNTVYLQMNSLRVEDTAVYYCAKGRAAGLFDSWGQGTLVTVSS.

2 of these entries, quoted again:

| VH | apparent Kd | replicates with signal |
|---|---|---|
| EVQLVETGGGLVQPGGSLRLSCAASGFTLNSYGHSWVRQAPGKGPEWVSVIYSDGHRTFYGDSVKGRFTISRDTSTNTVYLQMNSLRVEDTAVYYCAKGRAAGTFDDWGQGTLVTVSS | nd | 0/3 |
| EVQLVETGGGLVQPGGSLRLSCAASGFTPNSYGISWVRQAPGKGPEWVSVISSDGRRMFYGDSVKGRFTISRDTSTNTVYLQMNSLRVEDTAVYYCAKGRAAGTFDSWGQGTLVTVSS | nd | 0/3 |

From the AlphaSeq antibody data of Engelhart et al. 2022 (doi:10.1038/s41597-022-01779-4), copy in the FLAb collection.